# Test results published in patent publication US5614504A, “Method of making inosine monophosphate derivatives and immunopotentiating uses thereof” (The University of South Florida, priority 1995, dated 1997).
# Test system: 5'-nucleotidase (from Crotalus atrox venom)
# Assay: Testing of protection from 5'-nucleotidase activity (Table 1A)
# Type: in vitro ADME
# Settings: in words
structure (smiles),measurement,value
"COP(=O)(O)OC[C@H]1O[C@@H](n2cnc3c(=O)[nH]cnc32)[C@H](O)[C@@H]1O [Me-IMP, Methyl-5'-inosine-monophosphate]",resistance to hydrolysis by 5'-nucleotidase,extremely resistant
